Measured values: US12472248B2, “Antibodies against fentanyl and fentanyl analogs” (dated 2025)
This is a selection: effects in other tests are not listed, and their absence says nothing.

Test system: postimmune sera (week 16)
Test: Serum binding of drugs by ED-LC-MS/MS
Conditions: serum dilutions 1:1600 to 1:6400

## Norfentanyl
  fractions bound compared with fentanyl: less than those of fentanyl
